Chains of the proteins cited; added tags and fusions are not shown.
UniProt P27732, whole entry: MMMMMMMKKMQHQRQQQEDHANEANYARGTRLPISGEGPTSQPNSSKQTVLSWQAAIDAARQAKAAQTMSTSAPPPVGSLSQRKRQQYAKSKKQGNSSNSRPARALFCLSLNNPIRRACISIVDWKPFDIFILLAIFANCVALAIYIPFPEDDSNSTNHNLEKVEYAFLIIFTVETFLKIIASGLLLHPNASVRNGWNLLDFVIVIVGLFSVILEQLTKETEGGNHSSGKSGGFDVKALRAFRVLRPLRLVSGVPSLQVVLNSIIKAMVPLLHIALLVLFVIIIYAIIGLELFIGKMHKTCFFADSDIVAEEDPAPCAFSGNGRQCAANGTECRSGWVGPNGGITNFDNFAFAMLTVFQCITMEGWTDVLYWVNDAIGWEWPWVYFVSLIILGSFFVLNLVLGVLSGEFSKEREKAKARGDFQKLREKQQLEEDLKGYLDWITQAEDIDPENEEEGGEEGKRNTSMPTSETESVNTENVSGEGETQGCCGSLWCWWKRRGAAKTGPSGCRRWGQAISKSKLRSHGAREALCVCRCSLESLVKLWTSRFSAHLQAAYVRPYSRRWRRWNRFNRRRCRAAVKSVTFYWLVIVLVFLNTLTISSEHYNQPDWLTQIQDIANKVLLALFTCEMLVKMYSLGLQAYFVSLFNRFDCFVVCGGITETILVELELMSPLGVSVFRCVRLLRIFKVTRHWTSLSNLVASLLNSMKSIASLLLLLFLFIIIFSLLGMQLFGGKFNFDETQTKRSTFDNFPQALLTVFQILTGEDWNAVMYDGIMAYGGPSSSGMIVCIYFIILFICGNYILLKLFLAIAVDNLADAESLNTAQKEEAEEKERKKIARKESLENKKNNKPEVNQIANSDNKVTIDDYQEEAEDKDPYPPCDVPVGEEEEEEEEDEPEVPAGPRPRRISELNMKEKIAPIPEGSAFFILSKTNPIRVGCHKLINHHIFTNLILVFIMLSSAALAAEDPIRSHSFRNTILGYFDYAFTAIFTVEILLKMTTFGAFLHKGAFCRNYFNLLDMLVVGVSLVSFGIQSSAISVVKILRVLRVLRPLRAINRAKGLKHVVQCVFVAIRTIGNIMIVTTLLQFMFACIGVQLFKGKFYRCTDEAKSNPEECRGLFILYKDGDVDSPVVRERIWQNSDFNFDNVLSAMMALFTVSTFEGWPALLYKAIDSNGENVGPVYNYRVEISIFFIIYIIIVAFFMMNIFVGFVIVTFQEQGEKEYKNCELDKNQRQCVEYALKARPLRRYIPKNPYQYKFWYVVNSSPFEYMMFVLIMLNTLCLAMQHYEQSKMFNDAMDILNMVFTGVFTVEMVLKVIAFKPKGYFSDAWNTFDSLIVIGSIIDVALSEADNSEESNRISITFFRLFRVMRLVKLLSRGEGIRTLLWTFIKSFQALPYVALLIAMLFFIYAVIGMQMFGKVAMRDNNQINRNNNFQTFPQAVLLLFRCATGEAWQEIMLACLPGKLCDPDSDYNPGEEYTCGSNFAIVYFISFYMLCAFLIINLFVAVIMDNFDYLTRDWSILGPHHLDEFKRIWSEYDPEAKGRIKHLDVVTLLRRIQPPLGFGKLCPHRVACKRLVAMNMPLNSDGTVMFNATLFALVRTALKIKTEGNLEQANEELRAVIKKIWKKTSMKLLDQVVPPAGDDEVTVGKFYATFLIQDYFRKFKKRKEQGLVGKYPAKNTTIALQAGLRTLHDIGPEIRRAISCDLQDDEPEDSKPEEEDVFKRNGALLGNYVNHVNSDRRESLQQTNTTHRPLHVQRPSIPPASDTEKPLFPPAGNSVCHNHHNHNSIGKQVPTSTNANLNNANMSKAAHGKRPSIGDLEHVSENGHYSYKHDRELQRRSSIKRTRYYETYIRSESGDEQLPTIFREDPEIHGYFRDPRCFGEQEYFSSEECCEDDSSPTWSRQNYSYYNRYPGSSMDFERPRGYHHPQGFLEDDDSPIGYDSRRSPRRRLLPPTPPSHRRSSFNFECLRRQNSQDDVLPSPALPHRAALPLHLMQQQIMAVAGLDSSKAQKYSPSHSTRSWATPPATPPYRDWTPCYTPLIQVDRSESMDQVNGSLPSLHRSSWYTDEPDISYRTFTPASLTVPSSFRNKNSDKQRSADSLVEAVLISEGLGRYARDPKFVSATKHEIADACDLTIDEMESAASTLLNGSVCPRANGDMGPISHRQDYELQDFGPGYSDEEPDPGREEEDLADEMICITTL

In article PMC4595045 (Journal of medicinal chemistry, 2013):

The compounds below were run against CaV1.3 LTCCs (Rattus norvegicus, UniProt P27732) (assay: FLIPR Fluo-8 calcium influx assay, HEK293 cells stably expressing CaV1.3). Conditions: CaV1.3 over CaV1.2.
Type: cell-based

Structure (SMILES)	Selectivity, ratio of the IC50 values (CaV1.2/CaV1.3)
O=C1CC(=O)N([C@H]2C[C@H]3CC[C@@H]2C3)C(=O)N1CCc1cccc(C(F)(F)F)c1 [Compound 107, 1-((1R,2S,4S)-Bicyclo-[2.2.1]heptan-2-yl)-3-(3-(trifluoromethyl)phenethyl)-pyrimidine-2,4,6(1H,3H,5H)-trione]	>33.0
C[C@H]1[C@H](N2C(=O)CC(=O)N(CCc3ccc(Cl)cc3)C2=O)C[C@@H]2C[C@H]1C2(C)C [Compound 58]	>6
C[C@H](C1CCCCC1)N1C(=O)CC(=O)N(CCc2cccc(Cl)c2)C1=O [Compound 45, (R)-1-(3-Chlorophenethyl)-3-(1-cyclohexylethyl)pyrimidine-2,4,6(1H,3H,5H)-trione]	>10
O=C1CC(=O)N(C2CCCC2)C(=O)N1CC1(c2ccc(Cl)cc2)CC1 [Compound 96, 1-((1-(4-Chlorophenyl)cyclopropyl)methyl)-3-cyclopentyl-pyrimidine-2,4,6(1H,3H,5H)-trione]	>26
